Source: patent publication US8163906B2, “Dihydroquinone and dihydronaphthridine inhibitors of JNK” (Roche Palo Alto, LLC, priority 2007, dated 2012)

Protein sequences, listed by entry. Tags and fused reporters are not part of them. Lines headed by an entry give the natural chain unless they say otherwise; changes in a name come on top.
UniProt P45984: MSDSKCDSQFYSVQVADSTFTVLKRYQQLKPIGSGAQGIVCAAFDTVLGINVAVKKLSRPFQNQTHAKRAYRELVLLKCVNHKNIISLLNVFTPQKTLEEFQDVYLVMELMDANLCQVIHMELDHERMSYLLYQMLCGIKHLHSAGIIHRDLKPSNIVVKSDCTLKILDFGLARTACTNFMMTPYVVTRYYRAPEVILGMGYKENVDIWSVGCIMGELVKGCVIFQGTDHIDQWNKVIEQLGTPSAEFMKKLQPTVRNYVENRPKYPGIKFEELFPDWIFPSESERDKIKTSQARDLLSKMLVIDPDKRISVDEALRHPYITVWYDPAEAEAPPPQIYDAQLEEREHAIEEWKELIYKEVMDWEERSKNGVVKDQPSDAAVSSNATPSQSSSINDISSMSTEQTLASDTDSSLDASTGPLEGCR

Target: Human JNK2α2 (Homo sapiens, UniProt P45984)
Experiment: JNK assay in vitro, phosphorylation of GST-ATF2 with [γ-33P] ATP (JNK2)
Type: biochemical
Conditions: ATP at Km (8 μM), 1 μM ATF2, 30° C. 30 min
Protocol: JNK activity was measured by phosphorylation of GST-ATF2 (19-96) with [γ-^33P] ATP. […] Human JNK2α2 assay contains 1 nM enzyme, 1 μM ATF2, 8 μM ATP with 1 uCi [γ-^33P] ATP. Human JNK1α1 assay contains 2 nM enzyme, 1 μM ATF2, 6 μM ATP with 1 μCi [γ-^33P] ATP. […] ATP. The enzyme assay was carried out in the presence or absence of several compound concentrations. JNK and compound were pre-incubated for 10 min., followed by initiation of the enzymatic reaction by adding ATP and the substrate. The reaction mixture was incubated at 30° C. for 30 min. […] The incorporation of ^33P into ATF2 was quantified on a microplate scintillation counter (Packard Topcount). Compound inhibition potency on JNK was measured by IC50 value generated from ten concentration inhibition curves fitted into the 3-parameter model: % inhibition=Maximum/(1+(IC50/[Inhibitor])^slope). Data were analyzed on Microsoft Excel for parameter estimation.

Question: With `CNS(=O)(=O)c1ccc(Cc2c(C(=O)OC)n(-c3ccccc3)c3cc(Cl)ccc3c2=O)cc1` [Compound 44, 7-Chloro-3-(4-methylsulfamoyl-benzyl)-4-oxo-1-phenyl-1,4-dihydroquinoline-2-carboxylic acid methyl ester] as the compound, how does the IC50 read?
Answer: The IC50 was 168 nM.
